System: GB126, GB239 and GB86 patient-derived cell lines
Assay: In vitro single-cell RNA sequencing, analyses across the cell lines (pseudobulk differential gene expression, GSEA, non-cycling cells)
Assay type: cell-based, human
Method: Patient-derived glioma stem cell lines (GSCs; GB126, GB86, and GB239) were established from resected GBM tumor tissue. Cell lines were genetically profiled for mutations and copy number aberrations using the IvySeq custom gene panel. […] GB239 was derived from a tumor sample included in this Phase 0 trial (tumor sample: 100-0039). All human GSCs were cultured as described previously.[12]
Following the fifth day of drug exposure, cells were harvested, cryopreserved to be processed at a later point, or immediately processed for single-cell RNA sequencing (10x Genomics, 3’ version 3). The single-cell RNA sequencing data were then processed via cellranger count and Seurat. Briefly, cells were filtered out based on the following criteria: minimum number of genes detected >500 and <10 000 with a maximum percentage of mitochondrial genes set to 10%. Statistical assessment was made between the malignant proportions of each cell state using a 2-sided paired t-test.
Descriptive statistics of the clinical data are included in Table 1. Comparisons between groups were conducted using a 2-sided or paired 2-sided t-test, where indicated. P < .05 was considered significant. Multiple hypothesis test corrections (ie, false discovery rate correction) were applied for snRNAseq pseudobulk differential expression analysis.

[1] = ribociclib versus control (DMSO)

Work on CN(C)C(=O)c1cc2cnc(Nc3ccc(N4CCNCC4)cn3)nc2n1C1CCCC1 [ribo] yielded a log2FoldChange (feature ABCB11, ribociclib versus control (DMSO)) of 1.044, a log2FoldChange (feature AC003659.1, ribociclib versus control (DMSO)) of 1.0757 and a log2FoldChange (feature AC007391.3, ribociclib versus control (DMSO)) of 1.025. It also gave a log2FoldChange (feature AC008551.1, ribociclib versus control (DMSO)) of 1.025, a log2FoldChange (feature AC009975.1, ribociclib versus control (DMSO)) of 1.119 and a log2FoldChange (feature AC016642.1, ribociclib versus control (DMSO)) of 1.119. The log2FoldChange (feature AC018643.1, ribociclib versus control (DMSO)) was 1.076, the log2FoldChange (feature AC022431.1, ribociclib versus control (DMSO)) was 1.234 and the log2FoldChange (feature AC093879.1, ribociclib versus control (DMSO)) was 1.0437. For the same compound, the log2FoldChange (feature AC093912.1, ribociclib versus control (DMSO)) was 1.217, the log2FoldChange (feature AC108053.1, ribociclib versus control (DMSO)) was 1.175 and the log2FoldChange (feature ADH6, ribociclib versus control (DMSO)) was 1.0252. For the same compound, the log2FoldChange (feature AF127577.3, ribociclib versus control (DMSO)) was 1.0263, the log2FoldChange (feature AL121894.1, ribociclib versus control (DMSO)) was 1.234 and the log2FoldChange (feature BCO1, ribociclib versus control (DMSO)) was 1.0253. The log2FoldChange (feature BOLL, ribociclib versus control (DMSO)) was 1.119, the log2FoldChange (feature CCDC26, ribociclib versus control (DMSO)) was 1.101 and the log2FoldChange (feature CPA4, ribociclib versus control (DMSO)) was 1.025. For the same compound, the log2FoldChange (feature CPB1, ribociclib versus control (DMSO)) was 1.315, the log2FoldChange (feature GGT5, ribociclib versus control (DMSO)) was 1.119 and the log2FoldChange (feature HP, ribociclib versus control (DMSO)) was 1.025. For the same compound, the log2FoldChange (feature IGFBP7-AS1, ribociclib versus control (DMSO)) was 1.026, the log2FoldChange (feature IKBKE, ribociclib versus control (DMSO)) was 1.228 and the log2FoldChange (feature LINC00545, ribociclib versus control (DMSO)) was 1.097. It also gave a log2FoldChange (feature LINC02574, ribociclib versus control (DMSO)) of 1.315, a log2FoldChange (feature MCTP2, ribociclib versus control (DMSO)) of 1.101 and a log2FoldChange (feature NAALADL2-AS3, ribociclib versus control (DMSO)) of 1.138. The log2FoldChange (feature PCDHB8, ribociclib versus control (DMSO)) was 1.026, the log2FoldChange (feature POU5F1B, ribociclib versus control (DMSO)) was 1.1812 and the log2FoldChange (feature S100B, ribociclib versus control (DMSO)) was 1.035. For the same compound, the log2FoldChange (feature SLC22A1, ribociclib versus control (DMSO)) was 1.1427, the log2FoldChange (feature SLC25A34-AS1, ribociclib versus control (DMSO)) was 1.035 and the log2FoldChange (feature TNFSF4, ribociclib versus control (DMSO)) was 1.076. The log2FoldChange (feature TNN, ribociclib versus control (DMSO)) was 1.048, the “log2FoldChange AC007728.2” value (gene AC007728.2, ribociclib versus control (DMSO)) was 1.44 and the log2FoldChange (gene AC011498.3, ribociclib versus control (DMSO)) was -1.005. The log2FoldChange (gene AC012213.1, ribociclib versus control (DMSO)) was -1.2171, the “log2FoldChange AC018616.1” value (gene AC018616.1, ribociclib versus control (DMSO)) was 2.252 and the log2FoldChange (gene AC233280.1, ribociclib versus control (DMSO)) was -1.005. It also gave a log2FoldChange (gene ADH4, ribociclib versus control (DMSO)) of 1.005, a log2FoldChange (gene AL359399.1, ribociclib versus control (DMSO)) of -1.234 and a log2FoldChange (gene ATAD5, ribociclib versus control (DMSO)) of -1.025. The log2FoldChange (gene BARD1, ribociclib versus control (DMSO)) was -1.097, the “log2FoldChange CASC9” value (gene CASC9, ribociclib versus control (DMSO)) was 1.37 and the log2FoldChange (gene CBX2, ribociclib versus control (DMSO)) was -1.025. The log2FoldChange (gene CENPN, ribociclib versus control (DMSO)) was -1.657, the log2FoldChange (gene CIP2A, ribociclib versus control (DMSO)) was -1.217 and the log2FoldChange (gene DTYMK, ribociclib versus control (DMSO)) was -1.076. For the same compound, the log2FoldChange (gene EBF2, ribociclib versus control (DMSO)) was -1.005, the log2FoldChange (gene FBXO43, ribociclib versus control (DMSO)) was -1.217 and the “log2FoldChange FSIP2-AS2” value (gene FSIP2-AS2, ribociclib versus control (DMSO)) was 1.502. The log2FoldChange (gene HIST1H2BJ, ribociclib versus control (DMSO)) was -1.005, the log2FoldChange (gene HIST1H4E, ribociclib versus control (DMSO)) was -1.005 and the “log2FoldChange LINC01478” value (gene LINC01478, ribociclib versus control (DMSO)) was 1.617. For the same compound, the “log2FoldChange LINC02149” value (gene LINC02149, ribociclib versus control (DMSO)) was 1.376, the log2FoldChange (gene MCIDAS, ribociclib versus control (DMSO)) was -1.37 and the log2FoldChange (gene PCDH9-AS4, ribociclib versus control (DMSO)) was 1.005. For the same compound, the log2FoldChange (gene RANBP1, ribociclib versus control (DMSO)) was -1.143, the log2FoldChange (gene S100A16, ribociclib versus control (DMSO)) was 1.005 and the log2FoldChange (gene SCARA3, ribociclib versus control (DMSO)) was -1.377. The log2FoldChange (gene SCG5, ribociclib versus control (DMSO)) was -1.1193, the “log2FoldChange SH3RF3-AS1” value (gene SH3RF3-AS1, ribociclib versus control (DMSO)) was 1.502 and the log2FoldChange (gene SLC9A9-AS1, ribociclib versus control (DMSO)) was 1.001. For the same compound, the log2FoldChange (gene TUBB, ribociclib versus control (DMSO)) was -1.076, the “log2FoldChange Z85996.2” value (gene Z85996.2, ribociclib versus control (DMSO)) was 1.718 and the log2FoldChange (gene Z93241.1, ribociclib versus control (DMSO)) was -1.0046. The “log2FoldChange, feature CENPA” value [1] was -1.993, the “log2FoldChange, feature CLSPN” value [1] was -2.2433 and the “log2FoldChange, feature HIST1H1T” value [1] was -3.682. The “log2FoldChange, feature NUF2” value [1] was -2.374 and the “log2FoldChange, feature SKA3” value [1] was -2.852.
